Assay results taken from ChEMBL document CHEMBL1126910, “18F-labeled benzamides for studying the dopamine D2 receptor with positron emission tomography” (J Med Chem, 1993).

Sequences of proteins named here, by UniProt entry; tags and fusion partners are left off.
UniProt P61169, whole entry: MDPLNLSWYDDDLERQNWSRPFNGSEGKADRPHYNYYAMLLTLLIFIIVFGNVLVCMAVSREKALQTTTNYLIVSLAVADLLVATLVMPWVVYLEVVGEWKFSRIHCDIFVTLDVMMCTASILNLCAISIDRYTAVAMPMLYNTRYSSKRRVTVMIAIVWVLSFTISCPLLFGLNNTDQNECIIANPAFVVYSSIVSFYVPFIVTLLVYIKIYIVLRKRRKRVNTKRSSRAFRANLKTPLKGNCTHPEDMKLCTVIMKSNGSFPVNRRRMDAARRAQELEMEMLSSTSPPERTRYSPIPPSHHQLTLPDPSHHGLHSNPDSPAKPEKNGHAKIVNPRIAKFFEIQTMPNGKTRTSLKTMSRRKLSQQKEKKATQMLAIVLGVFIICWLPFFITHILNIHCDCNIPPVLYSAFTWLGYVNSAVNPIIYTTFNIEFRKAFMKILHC

Experiments:
D(2) dopamine receptor = D(2) dopamine receptor (Rattus norvegicus, UniProt P61169); test: Inhibition of [125I]- NCQ 298 binding to D2 receptor of rat striatal tissue; format: tissue-based, Striatum
[1] = Partition coefficient (logP); format: physicochemical; settings: octanol/water

Row | Ki (D(2) dopamine receptor) [nM] | logP [1] | Structure (SMILES)
1 | 0.95 | 2.98 | COc1cc(N)c(Cl)cc1C(=O)NC1CCN(Cc2ccc(F)cc2)CC1
2 | – | 4 | COc1cc(Br)cc(C(=O)NC2CCN(Cc3ccc(F)cc3)CC2)c1OC
3 | – | 3.87 | COc1cc(Br)cc(C(=O)NC2CC3CCCC(C2)N3Cc2ccc(F)cc2)c1OC (centres undefined)
